## Experimental water solubility values from OPERA 2.9

Data: OPERA 2.9 data sets, kmansouri/OPERA on GitHub.

Solubility in water is on a log10 molar scale (set defined at 25 °C).

| compound | log solubility (log10 mol/L) |
|---|---|
| CC/C=C\CCOC(=O)OC | -3.07 |
| CC1(C)O[C@H]2O[C@H]([C@H]3COC(C)(C)O3)[C@H](OC(=O)c3ccccc3)[C@H]2O1 | -3.301 |
| O=S(=O)([O-])c1cc(Nc2nc(Nc3ccccc3)nc(N3CCOCC3)n2)ccc1/C=C/c1ccc(Nc2nc(Nc3ccccc3)nc(N3CCOCC3)n2)cc1S(=O)(=O)[O-].[Na+].[Na+] | -2.711 |
| CN1CCC(CN2c3ccccc3Sc3ccccc32)C1.Cl (stereo not given) | 0.177 |
| CCCCCCCC1CCCC(=O)O1 (stereo not given) | -3.448 |
| CCCC(CC)(CCC)C(=O)[O-].CCCC(CC)(CCC)C(=O)[O-].CCCC(CC)(CCC)C(=O)[O-].[Cr+3] | -6.85 |
| COC1CCCCCCCCCCC1 | -4.684 |
| COC(=O)c1ccc(CNS(C)(=O)=O)cc1S(=O)(=O)NC(=O)Nc1nc(OC)cc(OC)n1 | -3.02 |
| O=C(CCS)OCCn1c(=O)n(CCOC(=O)CCS)c(=O)n(CCOC(=O)CCS)c1=O | -2.514 |
| CC(C)(Oc1ccc(CCNC(=O)c2ccc(Cl)cc2)cc1)C(=O)O | -5.368 |
| CCOC(=O)c1ccccc1O | -2.824 |
| C=C(C)C(=O)OCCCOc1ccc(C(C)(C)c2ccc(OCCCOC(=O)C(=C)C)cc2)cc1 | -7.456 |
| O=S(=O)(O)c1cc(S(=O)(=O)O)c2c(N=Nc3cccc4ccccc34)c(O)ccc2c1 | -0.339 |
| C=CC(=O)OCCn1c(=O)n(CCOC(=O)C=C)c(=O)n(CCOC(=O)C=C)c1=O | -2.451 |
| CCCCCCOC(=O)C(C)OC(C)=O (stereo not given) | -0.855 |
| C=CC(=O)OCCOC(=O)NCCCCCCCCCCCCCCCCCC | -9.217 |
| Clc1ccc(Oc2ccccc2)c(Cl)c1Cl | -5.32 |
| C[C@H]1CC[C@@]2(O)C(C)(C)[C@@H]3CC[C@@]2(C)[C@H]1C3 | -3.726 |
| CCCCCCCCCCN(C)C | -4.045 |
| OCc1c(CO)c(CO)c(CO)c(CO)c1CO | -2.6 |
| CC(C)OC(=O)C1(S(=O)(=O)c2ccccc2)CCC1 | -3.34 |
| CCN(CCNS(C)(=O)=O)c1ccc(N)c(C)c1.CCN(CCNS(C)(=O)=O)c1ccc(N)c(C)c1.O=S(=O)(O)O.O=S(=O)(O)O.O=S(=O)(O)O | -3.25 |
| CC(C)CCCC(C)CCCC(C)CCCC(C)(O)C(O)CO (stereo not given) | -5.973 |
| CCOC(=O)c1ccc(C#Cc2ccc3c(c2)C(C)(C)CCS3)nc1 | -5.671 |
| COC(=O)C1=C(C)NC(C)=C(C(=O)OCC(C)C)C1c1ccccc1[N+](=O)[O-] (stereo not given) | -4.828 |
| N#Cc1c(N)nc(NC2CC2)nc1N | -0.58 |
| Clc1cc(Cl)c(Cl)nc1Cl | -3.982 |
| C/N=C(\c1ccccc1Cl)C1(O)CCCC1 | -2.945 |
| O=C1c2ccccc2-c2ccc3c4c(ccc1c24)-c1ccccc1C3=O | -8.1 |
| CC[C@H]1OC(=O)C[C@@H](O)[C@H](C)[C@@H](O[C@@H]2O[C@H](C)[C@@H](O)[C@H](N(C)C)[C@H]2O)[C@@H](CCN2C[C@H](C)C[C@H](C)C2)C[C@@H](C)C(=O)C=CC(C)=C[C@@H]1CO[C@@H]1O[C@H](C)[C@@H](O)[C@@H](OC)[C@H]1OC | -0.186 |
| CCCCNC(=O)CC[C@H](NC(=O)C(CC)CCCC)C(=O)NCCCC (some centres undefined) | -4.542 |
| CCCCCCCCCCCCCCCC(=O)OCCOc1cccc(OCCOC(=O)CCCCCCCCCCCCCCC)c1 | -8.13 |
| Cc1cn2[nH]c(=N)nc2nc1O | -2.176 |
| O=c1cnc2[nH]c(=O)[nH]c(=O)c2[nH]1 | -3.125 |
| Nc1nc2[nH]cnc2c(=O)[nH]1 | -4.429 |
| CC(=O)CSc1ccc(Cl)cc1 | -2.679 |
| Cc1cc(N(CCO)CCO)ccc1N=Nc1ccc([N+](=O)[O-])cc1Cl | -6.57 |
| CCN(CC)c1ccc(C(=N)c2ccc(N(CC)CC)cc2)cc1.Cl | -2.371 |
| Cc1ccc(C=O)cc1C | -2.277 |
| CCCNC(=O)NS(=O)(=O)c1ccc(Cl)cc1 | -3.165 |

The 3 lowest values of log solubility among the entries above:

compound	log solubility (log10 mol/L)
C=CC(=O)OCCOC(=O)NCCCCCCCCCCCCCCCCCC	-9.217
CCCCCCCCCCCCCCCC(=O)OCCOc1cccc(OCCOC(=O)CCCCCCCCCCCCCCC)c1	-8.13
O=C1c2ccccc2-c2ccc3c4c(ccc1c24)-c1ccccc1C3=O	-8.1

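OPERA's authors assembled the values from existing databases and did not measure them anew. The files give a single number for a compound and property, which may rest on several reports. Conditions of the individual experiments are not part of the data. Where a salt, mixture or single isomer is drawn, the source does not say that exactly this form was tested. Some entries may be limits or estimates that an upstream database listed as plain numbers.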